## Binding of CDR-mutated scFvs to a peptide of the spike HR2 region

The target is the same throughout: PDVDLGDISGINAS, from the HR2 region of SARS-CoV-2 spike.

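The starting antibody came from a phage panning campaign against this peptide. This is the validation round: designs drawn from the data on random variants, tested in the same kind of assay. Group labels follow the data file (En: ensemble of fine-tuned language models; GP: Gaussian process model; HC: hill climbing; Gen: genetic algorithm; Gibbs: Gibbs sampling; a sequence that several methods proposed may carry one label only). The assay is AlphaSeq: two haploid yeast populations carry antibody and antigen on their surface. Mating (16 h, 30 °C) was followed by selection of diploids and sequencing of their barcodes. Each replicate has its own calibration line, from reference interactions of the BCL2 family. Mating was done six times.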

The variants keep the heavy chain, the linker and the frameworks of Ab-14 (scFv order VH, the linker GGGGSGGGGSGGGGS, VL).
VH: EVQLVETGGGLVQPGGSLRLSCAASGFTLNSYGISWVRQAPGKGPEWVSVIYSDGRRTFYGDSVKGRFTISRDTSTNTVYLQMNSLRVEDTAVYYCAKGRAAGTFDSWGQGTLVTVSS
VL: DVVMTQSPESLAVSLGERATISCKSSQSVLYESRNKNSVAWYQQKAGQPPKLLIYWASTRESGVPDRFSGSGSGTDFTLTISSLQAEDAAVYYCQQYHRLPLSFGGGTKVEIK

Each variant is given by its three light chain CDRs, as the data file delimits them; those of the parent are KSSQSVLYESRNKNSVA, WASTRES, QQYHRLPLS.
Variants here have more than six changes.
Kd is apparent (estimated from mating counts) and averaged on the log scale over replicates with a signal. Smaller is tighter.
A pair that was not seen in any replicate is written "nd"; this usually means weak binding, but a binder can also be missed.
A sequence measured in both rounds can read differently, since the two assays cover different ranges.
In the paper, a design with two or fewer of six values counts as a poor binder.
Three control strains display no target. For all light chain designs, 4% of the pairings with them gave a signal, with a median of 430 nM and one signal in twenty below 38 nM, so weak values seen in few replicates may be background.

With KLDQSQLYQSRNKQSVA | NASQRES | QQYHRLPLS [GP_Gibbs] the result was 550 pM (6 of 6 replicates). For KLRQVTGYESYIKNSVA | QTSTRVS | QDYHRLPLS [En_HC], the assay gave 9.4 nM (6 of 6 replicates). With KISQEWLYESRNINNVA | SCSQRES | QQYHRLPLS [GP_Gibbs] the result was 1.3 nM (6 of 6 replicates). Variant KLRQVTGYESYNKNSVA | QTSTRAE | QDYHRLPLS [En_HC] gave 520 pM (6 of 6 replicates). With KIYELGKGNIKTANNIA | QTDIRMS | QSYNRLPLS [En_Gibbs] the result was 12 nM (6 of 6 replicates). For TIGQMFNGESRHRNSVA | QASTRES | QSYDRLPLS [En_HC], the assay gave 5.3 nM (6 of 6 replicates). Variant TISDVMGHLTRAHNNVA | DMDTRGD | QQYNRLPLS [En_Gen] gave 340 pM (6 of 6 replicates). Variant MISQLTNMGTFAINSVA | QASVRNE | QQYDRLPLE [En_Gen] gave 780 nM (6 of 6 replicates). With KIQPQLQQSFASKNNVA | DRQMSAE | QQYNRLPLV [En_Gibbs] the result was nd (0 of 6 replicates).

For KIGGTLNQLMHKKNNVA | DLVMREN | QQYFRLPLS [En_Gen], the assay gave 6.0 nM (6 of 6 replicates). Variant KLQQSVGYESRNQNAVA | EASTREE | QQYHRLPLS [GP_Gibbs] showed 3.8 nM (6 of 6 replicates). For TIAQSMLYLSNIKNSIA | QAETRED | QQYHRLPIS [En_HC], the assay gave 2.6 nM (6 of 6 replicates). For KSSISVEYQDRLSNSVA | DASQREW | QQYHRLPLS [GP_Gibbs], the assay gave 1.4 nM (6 of 6 replicates). With KLSAFYRMESRNKNSVA | DNSTRES | QQYDRLPLS [En_HC] the result was 48 nM (5 of 6 replicates). With IVSQLMLWGTHVKNSIA | EAETRLN | QQYERLPLF [En_Gen] the result was 77 nM (6 of 6 replicates). For KIMQSLNYLQFNVSNVA | GQETRER | QSYHRLPLS [En_HC], the assay gave 140 nM (4 of 6 replicates). Variant KLTMVTGTEKVRGNNVA | EMETRER | QQYNRLPLA [En_Gen] gave 5.1 nM (6 of 6 replicates). With SLMQVGGYESNNKNSIA | DLRTRLS | QQYHRLPLS [En_HC] the result was 5.5 nM (6 of 6 replicates).

Variant MISQNIYGMYRMRDNVA | HASMRED | QCYDRLPLS [En_Gen] gave 9.3 nM (6 of 6 replicates). Variant KLSMTTEMEHTNRNSVA | ELVTRMK | QQYNRLPLS [En_Gen] gave 28 nM (6 of 6 replicates). Variant KLGQMTAIESRNNNSVA | QMDTRES | QQYHRLPLS [En_HC] gave 49 nM (6 of 6 replicates). With MLDNHQAGYYQKNNNIA | EMNMRRY | QQYGRLPLS [En_Gibbs] the result was 17 nM (6 of 6 replicates). With IVSQLMLWGAHVKNSIA | EAVTRLN | QQYDRLPLF [En_Gen] the result was nd (0 of 6 replicates). For KLSQMVDYESRNMNNVA | EASTRMS | QQYHRLPLS [GP_Gibbs], the assay gave 210 pM (6 of 6 replicates). Variant IVSQLMLWGLHAKNSIA | EAQTRLN | QQYDRLPLE [En_Gen] showed 650 pM (6 of 6 replicates). Variant KLNISDGYEQRNKNSVA | EASTRCD | QQYHRLPLS [GP_Gibbs] gave 810 pM (6 of 6 replicates). Variant NFPQESMYESHFKNNVA | QTSTREP | QQYDHLPLS [En_HC] gave 4.1 nM (6 of 6 replicates).

For RFTEHLLMLENKIYAIA | NATKTME | QQYFRLPFA [En_Gibbs], the assay gave 5.9 nM (6 of 6 replicates). Variant TISQVMNTLTRHGNNVA | DLQEREQ | QQYFRLPLS [En_Gen] gave 6.2 nM (6 of 6 replicates). Variant KLMPSNLHYTEHLNSVA | EAEELQT | QHYARLPLM [En_Gibbs] showed 4.6 nM (6 of 6 replicates). With KIAGSMAMTSHHINSVA | QSTTREE | QQYNRLPLS [En_HC] the result was 4.3 nM (6 of 6 replicates). Variant HISQSFMTESVWRNNVA | HQSTREQ | QQYDRLPLS [En_HC] gave 5.6 nM (6 of 6 replicates). For KVSWLHPYWSRNKNSVA | NASTREQ | QQYHRLPLS [GP_Gibbs], the assay gave 3.4 nM (6 of 6 replicates). Variant TLYGLSMSMSKNKNNVA | EMTTREK | QQYDRLPLA [En_Gen] showed 2.6 nM (6 of 6 replicates). With KVSQSMDYESRNVMSVA | NASTRLE | QQYHRLPLS [GP_Gibbs] the result was 1.4 nM (6 of 6 replicates). Variant RIQDHMAVGTMSHSSIA | EEATVMD | QQYSRLPLA [En_Gibbs] gave 30 nM (6 of 6 replicates).

Variant MISQLGNMGQFAINSVA | QASLRND | QQYDRLPLM [En_Gen] showed 4.8 nM (6 of 6 replicates). Variant MISNVMNTLTRQGNNVA | DLQNREK | QQYFRLPLS [En_Gen] gave 8.9 nM (6 of 6 replicates). Variant MIAQSLRGVGRNKNSVA | NAQTRES | QHYHRLPLS [En_HC] showed 24 nM (6 of 6 replicates). With KVSEFMKGLMMRTDSIA | DNNTRGS | QQYDRLPLS [En_Gen] the result was 22 nM (6 of 6 replicates). Variant KISQLVNFLGKMKNSVA | QMSTREE | QQYDRLPLS [En_HC] showed 3.6 nM (6 of 6 replicates). With HLSHMSGVESVKRNSVA | ENSTRAN | QQYDRLPLA [En_Gen] the result was 71 nM (6 of 6 replicates). Variant KITGMWTFESRNRNNIA | EESTRED | QSYHRLPLS [En_HC] showed 3.0 nM (4 of 6 replicates). Variant KLSMITGHMSTEKNNVA | EMVTREN | QQYNRLPLS [En_Gen] gave 59 nM (4 of 6 replicates). For KIDENTFHGANRQNNIA | ESRTVGA | QQYFRLPII [En_Gibbs], the assay gave 4.0 nM (6 of 6 replicates).

With KLSLSLSFSLRGTRAIA | DGSTRAH | QQYHRLPLT [En_Gibbs] the result was 4.3 nM (6 of 6 replicates). For MLSDLVKQGLRNTNSVA | DNSTRGS | QQYDRLPLS [En_HC], the assay gave 54 nM (6 of 6 replicates). Variant KLSMVTGHLSMAKNNVA | EMETREK | QQYNRLPLS [En_Gen] showed 1.6 nM (6 of 6 replicates). For KLQQQTEYETRNKNSVA | WASTREE | QQYHRLPLS [GP_HC], the assay gave 1.6 nM (6 of 6 replicates).

The first 3 entries again:

| CDR-L1 | CDR-L2 | CDR-L3 | group | Kd | seen in |
|---|---|---|---|---|---|
| KLDQSQLYQSRNKQSVA | NASQRES | QQYHRLPLS | GP_Gibbs | 550 pM | 6/6 |
| KLRQVTGYESYIKNSVA | QTSTRVS | QDYHRLPLS | En_HC | 9.4 nM | 6/6 |
| KISQEWLYESRNINNVA | SCSQRES | QQYHRLPLS | GP_Gibbs | 1.3 nM | 6/6 |

Source: Li et al. 2023 (doi:10.1038/s41467-023-39022-2), MIT Lincoln Laboratory and A-Alpha Bio; data file from the FLAb repository.